This assay deals with 5-hydroxytryptamine receptor 2C (Homo sapiens, UniProt P28335). Briefly: Binding affinity against human 5-hydroxytryptamine 2C receptor expressed in 293 cells using [3H]mesulergine. Format: cell-based, HEK293. An outline of the steps: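 Radioligand binding at cloned human receptors expressed in 293 cells: [³H]ketanserin for 5-HT2A, [³H]mesulergine for 5-HT2C. Values are means ± SEM of n ≥ 3 determinations.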

By UniProt entry, the sequences of proteins in these tests, tags left out. Where a name states a change or a piece, a line headed by the entry shows the natural chain unless it says otherwise.
UniProt P28335: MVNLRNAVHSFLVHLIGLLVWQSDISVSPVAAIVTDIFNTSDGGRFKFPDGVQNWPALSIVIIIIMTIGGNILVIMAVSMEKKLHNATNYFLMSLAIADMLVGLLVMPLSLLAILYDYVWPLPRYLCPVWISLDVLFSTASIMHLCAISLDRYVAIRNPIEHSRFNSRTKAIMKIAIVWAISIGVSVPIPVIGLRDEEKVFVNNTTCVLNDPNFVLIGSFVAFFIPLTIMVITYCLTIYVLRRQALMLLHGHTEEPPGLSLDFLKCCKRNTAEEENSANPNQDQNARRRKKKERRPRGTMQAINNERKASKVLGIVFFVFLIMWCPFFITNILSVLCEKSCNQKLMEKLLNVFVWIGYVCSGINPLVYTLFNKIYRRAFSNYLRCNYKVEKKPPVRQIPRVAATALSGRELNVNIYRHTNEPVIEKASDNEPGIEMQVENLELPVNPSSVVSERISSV

The record followed here is ChEMBL document CHEMBL1128425, “5-Methyl-1-(3-pyridylcarbamoyl)-1,2,3,5-tetrahydropyrrolo[2,3-f]indole: a novel 5-HT2C/5-HT2B receptor antagonist with improved affinity, selectivity, and oral activity” (J Med Chem, 1995).

`Cn1ccc2cc3c(cc21)CCN3C(=O)Nc1cccnc1` showed a Ki of 0.01 µM.
